Assay results: patent US10329260B2, “Human plasma kallikrein inhibitors” (BioCryst Pharmaceuticals, Inc., priority 2014, dated 2019)

Chains of the proteins cited; added tags and fusions are not shown.
UniProt P03952, whole entry, looked up: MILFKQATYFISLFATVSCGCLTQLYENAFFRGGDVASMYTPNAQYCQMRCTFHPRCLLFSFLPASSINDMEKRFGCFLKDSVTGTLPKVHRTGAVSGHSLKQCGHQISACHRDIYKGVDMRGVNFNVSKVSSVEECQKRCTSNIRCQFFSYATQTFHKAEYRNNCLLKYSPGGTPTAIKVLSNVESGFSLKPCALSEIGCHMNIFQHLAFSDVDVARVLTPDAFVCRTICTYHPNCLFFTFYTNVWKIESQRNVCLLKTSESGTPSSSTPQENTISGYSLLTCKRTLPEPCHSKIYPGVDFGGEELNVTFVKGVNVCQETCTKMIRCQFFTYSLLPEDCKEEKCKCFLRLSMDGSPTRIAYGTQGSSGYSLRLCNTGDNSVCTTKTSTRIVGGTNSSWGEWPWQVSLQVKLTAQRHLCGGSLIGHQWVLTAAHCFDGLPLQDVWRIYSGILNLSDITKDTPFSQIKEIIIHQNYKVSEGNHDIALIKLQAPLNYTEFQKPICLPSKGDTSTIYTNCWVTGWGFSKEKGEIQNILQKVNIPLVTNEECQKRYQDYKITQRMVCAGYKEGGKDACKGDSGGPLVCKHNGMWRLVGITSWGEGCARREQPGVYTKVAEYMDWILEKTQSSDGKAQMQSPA

Molecular target: human plasma kallikrein (Homo sapiens (Human), UniProt P03952)
Assay: Plasma Kallikrein Activity Assay
Type: biochemical
Conditions: 2 nM kallikrein, 80 μM chromogenic substrate S2302, 30° C., pH 7.8; Ki by Cheng-Prusoff equation

## 1-(3-(aminomethyl)phenyl)-N-(5-((4-(aminomethyl)phenyl)(cyclopropyl-methylamino)methyl)-2-fluorophenyl)-3-(trifluoromethyl)-1H-pyrazole-5-carboxamide [Compound 139b]
  Ki: 0.1 to 50 nM
